Results taken from patent publication US20230159509A1 (Amathus Therapeutics, Inc., priority 2020, published 2023).

Sequences of proteins named here, by UniProt entry; tags and fusion partners are left off. Residues count along the entry.
UniProt Q12931, 60-704 limits assumed: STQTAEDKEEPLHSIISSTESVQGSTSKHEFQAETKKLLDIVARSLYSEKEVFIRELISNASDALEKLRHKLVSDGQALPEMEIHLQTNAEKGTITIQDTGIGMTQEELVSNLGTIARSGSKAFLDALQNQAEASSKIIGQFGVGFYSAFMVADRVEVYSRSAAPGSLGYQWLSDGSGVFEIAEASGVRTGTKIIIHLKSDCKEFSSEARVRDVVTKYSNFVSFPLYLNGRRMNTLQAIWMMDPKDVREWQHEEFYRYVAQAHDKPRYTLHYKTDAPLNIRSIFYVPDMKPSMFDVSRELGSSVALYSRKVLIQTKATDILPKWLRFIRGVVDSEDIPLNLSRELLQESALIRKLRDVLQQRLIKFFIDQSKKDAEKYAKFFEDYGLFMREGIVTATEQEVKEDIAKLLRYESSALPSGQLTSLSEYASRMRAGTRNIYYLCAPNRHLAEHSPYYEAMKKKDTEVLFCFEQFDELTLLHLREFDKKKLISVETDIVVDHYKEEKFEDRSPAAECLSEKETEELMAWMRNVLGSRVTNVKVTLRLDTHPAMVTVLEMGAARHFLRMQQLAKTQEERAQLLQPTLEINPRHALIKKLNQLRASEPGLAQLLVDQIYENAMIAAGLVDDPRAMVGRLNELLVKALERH

Molecular target: TRAP1 enzyme (Homo sapiens, UniProt Q12931)
Experiment: ADP Glo assay of TRAP1 ATPase activity
Method: Potency of test compounds to modulate the ATPase activity of TRAP1 enzyme was evaluated using ADP Glo assay. The assay is based on quantification of the ADP generated from ATP in the ATPase reaction. The assay is performed in two steps; first, after the ATPase reaction an equal volume of ADP-Glo™ Reagent is added to terminate the ATPase reaction and deplete the remaining ATP. Second, the Kinase Detection Reagent is added to simultaneously convert ADP to ATP and allow the newly synthesized ATP to be measured using a luciferase/luciferin reaction.
All the assays were carried out in a 384-well Proxiplate. The buffer used was 25 mM Pipes pH-7.5, 40 mM KCl, 0.05 mM MgCl2, 0.025% BSA, 0.316 mM EGTA, 0.003% Empigen, 0.01% Igepal. 150 nM Trap1 enzyme was incubated with various concentrations of the test compound (0.79 μM-100 μM) at 37° C. for 30 mins (except in blank wells). 20 μM ATP was added to each well to start the reaction. The plate was spun for 1 min at 1200 rpm and then incubated at 37° C. for 60 mins. 5 μl of ADP Glo reagent was added to all the wells and spun the plate for 1 min at 1200 rpm and kept it on a shaker at ambient temperature for 60 mins. 10 μl of kinase detection mix was added to all the wells and the plate was read for Luminescence at 495 nm. The amount of ADP released was estimated from ATP/ADP standard curve generated at the same experimental conditions. […]

COc1ncc(NC(=O)c2c3c(nn2C)CCC3)cc1S(=O)(=O)Nc1ccc(Cl)cc1
ADP GLO DRC: Mean Emax (maximal percent activation): C (“C” refers to 160-199%, inclusive)
EC50 (read-out: ADP GLO DRC: GeoMean EC50, concentration for half maximal activation): 10 to 20 µM
